Source: PubChem (Broad Institute)
Sampled rows, rich in hits. Any-hit rate of the full collection: about 1.3%.
SR-BI DiI inh – blocks mouse SR-BI lipid uptake from DiI-HDL. inhibition, % at 12.5 µM. hit rate 0.96% among 320,000. ldlA[mSR-BI] CHO cells, DiI-HDL uptake fluorescence, 3 h. Q61009;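 active means mean replicate inhibition of at least 70% and a set share of replicates each scoring 70 or more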;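 further: 0% = median of neutral control wells and 100% = median of positive control wells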
SR-BI DiI-HDL act – activators of SR-BI mediated HDL lipid uptake; activation, % at 12.5 µM; AID 504775; CHO ldlA[mSR-BI] cells, DiI-HDL uptake fluorescence, 3 h; 100 = double the neutral-control signal; hit rate 0.096% among 320,000;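 active means mean replicate activation of at least 60% and every replicate at or above 60%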;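 further: 0% = median plate neutral-control signal and 100% = twice that signal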
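Material: SR-BI-overexpressing, LDLR-lacking CHO cells; schedule: compound exposure 3 h, 37 °C; reagent: DiI-labelled HDL at 10 µg/mL final; technique: bottom-read fluorescence, 550/595 nm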
GSIS activator – primary screen for activators of insulin secretion dependent on glucose, INS-1E cells, GLuc reporter luminescence. AID 743287. activation, % at 16.6 µM. hit rate 0.61% among 370,000. INS-1E GLuc reporter insulin secretion, 2-3 h;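 active means lowest replicate activation of at least 40%, so every replicate reaches that level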;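 further: 0% = median of neutral control wells and 100% = median of IBMX positive control wells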
Yeast UUG start – alters start codon recognition fidelity in yeast; S. cerevisiae UUG-firefly luciferase reporter, luminescence/redox ratio; activity score, % at 18.7 µM; actives 0.13% (n = 350,000); AID 602363;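 active = replicate mean at a twofold rise or more, about +100% in these data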;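 also: firefly luciferase made from a UUG start codon reports start codon fidelity; reporter light over untreated wells divided by growth signal over untreated wells; some hits fall short of that in this replicate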
An asterisk follows results filed as active; . = no result; + = active, no number; ! = not confirmed by another sample.

SR-BI DiI-HDL act,Yeast UUG start,GSIS activator,SR-BI DiI inh,Molecule
-80.1,-2.0,-15.0,80.1*,COc1cc2c(cc1OC)CN(c1ccc([N+](=O)[O-])cc1Cl)CC2
-44.3,.,49.5*,44.3,COc1cc2c(cc1OC)CN(c1ncccc1[N+](=O)[O-])CC2
-84.0,.,-21.4,84.0*,COc1ccc2oc(=O)c(-c3csc(Nc4ccc(O)cc4)n3)cc2c1
.,.,-0.8,.,CCOC(=O)CCCCCC(=O)Nc1ccc2c(c1)C(=O)N([C@@H](C)CO)C[C@H](C)[C@H](CN(C)S(C)(=O)=O)O2
.,.,-0.7,.,C/C=C/c1cnc2c(c1)C(=O)N([C@@H](C)CO)C[C@H](C)[C@H](CN(C)C(=O)C1CCC1)O2
196.4*,15.9,.,-196.4,Cc1cc(C)c(S(=O)(=O)N2CCOC2CNC(=O)C(=O)NCCc2c[nH]c3ccccc23)c(C)c1 (stereo unspecified)
-63.2,9.2,73.8*,63.2,CN(C)/C=N/c1c(C#N)cnn1-c1ncnc2sc(-c3ccccc3)cc12
-75.7,6.6,-5.5,75.7*,COCCCN1C(=O)N(c2ccc(F)cc2)C(=O)C1CC(=O)Nc1ccc(OC)cc1 (stereo unspecified)
13.3,1.4,5.7,-13.3,COCCCN1C(=O)N(c2ccc(F)cc2)C(=O)C1CC(=O)Nc1ccccc1 (stereo unspecified)
-5.5,3.8,.,5.5,COCCN1C(=O)N(c2cccc(OC)c2)C(=O)C1CC(=O)Nc1ccc(Cl)cc1 (stereo unspecified)
310.1*,-5.6,.,-310.1,CCc1ccc(NC(=O)CC2C(=O)N(c3cccc(OC)c3)C(=O)N2CCOC)cc1 (stereo unspecified)
3.8,-6.7,66.4*,-3.8,CCNc1nn2ccccc2c1/C=C(\C#N)C(=O)OCC
11.0,.,42.6*,-11.0,COc1cccc(OC)c1C(=O)OCC(=O)NCC(C)C
-22.1,2.5,-5.2,22.1,COc1cccc(OC)c1C(=O)OCC(=O)NCCCc1ccccc1
-32.6,-16.7,40.4*,32.6,CN(C)c1ncnc2sc(-c3ccccc3)cc12
-3.7,-15.3,46.5*,3.7,COc1ccccc1CNS(=O)(=O)c1cc(-c2cc(C)no2)ccc1C(C)C
8.9,-14.7,72.2*,-8.9,CN(C)C=NC(=O)c1ccc(N2CCN(c3ncc(C(F)(F)F)cc3Cl)CC2)cc1
-17.7,-3.4,2.7,17.7,Cc1ccc(-c2nc3c(=O)n(-c4ccccc4)c4c(c(=O)n(C)c(=O)n4C)c3o2)cc1
0.8,-15.1,79.2*,-0.8,Cc1ccc(-c2nc3c(=O)n(C)c4ccccc4c3o2)cc1
16.3,-14.0,50.0*,-16.3,Cc1ccc(/C=C2\SC(=O)N(CCC(=O)N3CCN(C)CC3)C2=O)cc1
3.1,.,-2.8,-3.1,CN1CCN(C(=O)CCN2C(=O)S/C(=C/c3ccc(Cl)cc3)C2=O)CC1
.,.,6.1,.,CNC[C@@H]1Oc2ccc(NC(C)=O)cc2C(=O)N(C)C[C@@H]1C
14.7,-28.9,446.4*,-14.7,CN(C)CCOc1ccc(-c2c(-c3ccccc3)sc3ccccc23)cc1
-80.5,-36.0,.,80.5*,CCN1/C(=C\C(=S)Nc2ccccc2)Sc2ccccc21
-36.6,.,-24.4,36.6,CCN1/C(=C\C=C(C(C)=O)C(C)=O)Sc2ccccc21

Part of the list above, reduced to Yeast UUG start and SR-BI DiI-HDL act.
Structure | Yeast UUG start | SR-BI DiI-HDL act
COCCCN1C(=O)N(c2ccc(F)cc2)C(=O)C1CC(=O)Nc1ccc(OC)cc1 (stereo unspecified) | 6.6 | -75.7
COCCCN1C(=O)N(c2ccc(F)cc2)C(=O)C1CC(=O)Nc1ccccc1 (stereo unspecified) | 1.4 | 13.3
COCCN1C(=O)N(c2cccc(OC)c2)C(=O)C1CC(=O)Nc1ccc(Cl)cc1 (stereo unspecified) | 3.8 | -5.5

Next section:
SR-BI DiI-HDL act,Yeast UUG start,GSIS activator,SR-BI DiI inh,Molecule
-0.3,.,65.0*,0.3,NS(=O)(=O)c1ccc(NC(=O)COC(=O)c2cn(-c3ccccc3)nc2-c2ccc(F)cc2)cc1
-44.0,.,-0.8,44.0,O=C(COC(=O)c1cn(-c2ccccc2)nc1-c1ccc(F)cc1)Nc1ncc(Cl)cc1Cl
63.5*,-7.5,29.1,-63.5,O=C(COC(=O)C1CCCCC1)Nc1cccc(Br)c1
-1.4,-11.5,.,1.4,Cc1cc2c(cc1C)CSC(c1ccccc1O)SC2
-1.0,7.4,152.9*,1.0,Oc1ccccc1C1SC(c2ccccc2O)SC(c2ccccc2O)S1 (stereo unspecified)
.,-10.9,13.4,.,Cc1noc(C)c1S(=O)(=O)N(C)C[C@@H]1OCCCC[C@H](C)Oc2ccc(NC(=O)Nc3ccc(C(F)(F)F)cc3)cc2C(=O)N([C@H](C)CO)C[C@@H]1C
-75.0,-5.7,.,75.0*,CCc1noc(C)c1C(=O)Nc1nc(-c2ccc(Cl)cc2Cl)c(C)s1
-6.0,1.0,-1.8,6.0,O=C(N/N=C\c1cc([N+](=O)[O-])ccc1N1CCOCC1)c1ccccn1
-72.8,.,0.7,72.8*,O=C(N/N=C\c1cc([N+](=O)[O-])ccc1N1CCCC1)c1ccccn1
-86.5,.,-0.7,86.5*,COc1ccc(NCC(=O)N/N=C/c2cc([N+](=O)[O-])ccc2N2CCCC2)cc1
.,2.3,-10.9,.,O=C(C[C@@H]1CC[C@@H]2[C@H](COC[C@@H](O)CN2Cc2cccc(F)c2)O1)NCC1CCCCC1
17.8,6.7,.,-17.8,CCOC(=O)C1(C)C(C(=O)OC)=C(c2ccc(OC)cc2)c2ccccc2N1C(=O)OC (stereo unspecified)
-58.9,-12.3,-51.3,58.9,COC(=O)C1=C(C(=O)OC)SC(=C2C(=S)C(C)(C)N(C(=O)C(C)C)c3ccccc32)S1
-97.4,-11.9,.,97.4*,COC(=O)C1=C(C(=O)OC)SC(=C2C(=S)C(C)(C)N(C(=O)C3CC3)c3ccccc32)S1
-81.9,-10.5,.,81.9*,CCCC(=O)N1c2ccccc2C(=C2SC(C(=O)OC)=C(C(=O)OC)S2)C(=S)C1(C)C
.,2.4,9.8,.,COC(=O)C[C@H]1CC[C@H]2[C@@H](COC[C@H](O)CN2S(=O)(=O)c2ccccc2C)O1
.,.,-1.6,.,COc1ccccc1-c1ccc2n(c1=O)C[C@@H]1[C@@H](CO)[C@H](C(=O)NC3CCC3)N(C(=O)NC(C)C)[C@H]21
.,.,804.5*!,.,Fc1cccc(-c2ccc(C3[C@@H]4CN(Cc5ccccc5F)C[C@H]3N4)cc2)c1 (stereo partly specified)
.,.,-10.6,.,Fc1cccc(CN2C[C@@H]3N[C@H](C2)C3c2ccc(-c3ccccc3)cc2)c1 (stereo partly specified)
.,.,+,.,Fc1cccc(CN2C[C@@H]3N[C@H](C2)[C@@H]3c2ccc(-c3cccc(F)c3)cc2)c1
-7.9,-17.5,.,7.9,Cc1cc(C(F)F)n2ncc(C(=O)NCc3ccccc3)c2n1
19.0,-12.3,79.8*,-19.0,COc1ccc(CNC(=O)c2cnn3c(C(F)F)cc(C)nc23)cc1
.,.,3.6,.,CS(=O)(=O)N1[C@@H]2CN(CC(F)(F)F)C[C@H]1C2c1ccccc1 (stereo partly specified)
5.9,-13.6,61.6*,-5.9,Cc1cc(C)nc(Nc2n[nH]c(COc3ccc4ccccc4c3)n2)n1
-102.5,-24.3,.,102.5*,CCOC(=O)N1CCN(S(=O)(=O)c2ccc(C(=O)NNc3nc4c(C)cccc4s3)cc2)CC1
-21.5,8.7,40.5*,21.5,CCN(CC)CCN(C(=O)c1ccc(S(=O)(=O)N2CCCC2)cc1)c1nc2cc(C)cc(C)c2s1
-120.8,-27.6,.,120.8*,CCOC(=O)N1CCN(S(=O)(=O)c2ccc(C(=O)NNc3nc4cc(C)cc(C)c4s3)cc2)CC1
.,-29.7,.,.,CCOC(=O)N1CCN(S(=O)(=O)c2ccc(C(=O)NNc3nc4c(C)cc(C)cc4s3)cc2)CC1

Arranged by molecular weight (ascending): some entries from above
SR-BI DiI-HDL act,Yeast UUG start,GSIS activator,SR-BI DiI inh,Molecule
17.8,6.7,.,-17.8,CCOC(=O)C1(C)C(C(=O)OC)=C(c2ccc(OC)cc2)c2ccccc2N1C(=O)OC (stereo unspecified)
-58.9,-12.3,-51.3,58.9,COC(=O)C1=C(C(=O)OC)SC(=C2C(=S)C(C)(C)N(C(=O)C(C)C)c3ccccc32)S1
-120.8,-27.6,.,120.8*,CCOC(=O)N1CCN(S(=O)(=O)c2ccc(C(=O)NNc3nc4cc(C)cc(C)c4s3)cc2)CC1
